“Also recorded” adds a separate entry of the source.
How the values were obtained:
Type in all cases: in vivo, mouse
[1] = test system: global protein synthesis in the hippocampus; assay: SUnSET measurement of global protein synthesis in brain tissue after injection; conditions: for global protein synthesis (puromycin incorporation): after ketamine
Experimental: Protein synthesis was measured by the SUnSET method. After pharmacological manipulation, mice were sacrificed by cervical dislocation, brains were removed, and the hippocampi were rapidly dissected, immersed in liquid nitrogen, and stored at −80° C. until further use. Hippocampi were homogenized using 20 strokes of a pre-chilled glass homogenizer with 600 μl of lysis buffer containing 50 mM Tris, pH 7.8, 240 mM KCl, 10 mM MgCl2, 250 mM D-sucrose, 2% Triton X-100, 20 μg/ml emetine, 5 mM DTT, 100 U/ml Rnasin (Promega), and protease inhibitor mixture without EDTA (Roche). Samples were centrifuged for 5 min at 16,100 g at 4° C. and supernatant was incubated with 100 µg/ml puromycin for 10 min at 4° C. An equal volume of 2×SDS sample buffer (10% glycerol, 5% β-mercaptoethanol, 4% SDS, 120 mM Tris-HCl, pH 6.8) was added to the samples and then boiled for 10 min at 100° C. Protein concentrations were determined using the BCA protein assay (Thermo), and samples were stored at −20° C. until further use. Puromycin incorporation was detected by western blotting using 12D10 antibody for puromycin (1:1000, Millipore).

GluA1 = assay: Western blot of GluA1 expression in brain tissue after injection; conditions: for GluA1 expression levels: C57BL/6 mice; for GluA1 expression in the hippocampus: 24 hours
Experimental: (§1) Sample preparation: Brains were quickly excised; hippocampus and cortex were dissected, and snap frozen in liquid nitrogen. Tissues were transferred from the liquid nitrogen to a glass-Teflon homogenizer and homogenized with a buffer containing 10 mM HEPES pH 7.4, 2 mM EDTA, 2 mM EGTA, 0.5 mM DTT (all from Sigma), 1× phosphatase inhibitor mixture (Sigma/Thermo Scientific), and 1× protease inhibitor mixture (Sigma/Thermo Scientific). Equal volumes of 2×SDS sample buffer were immediately added to the homogenates, and samples were boiled for 10 min. Samples were centrifuged at 12,000 g for 15 minutes and the supernatants were transferred to 3 aliquots. Each aliquot was thawed on ice and used for blotting only once or twice.
(§2) Prepared samples in SDS sample buffer were subjected to 7.5% or 4-20% gradient gel (Bio-Rad pre-cast gels) SDS-PAGE (electrophoresed on Bio-Rad PAGE apparatus) and Western blot analysis. Each sample was loaded with the same amount of total protein (7-15 μg; according to antibody linearity). After transfer to a 0.2 μm pore size nitrocellulose or polyvinyidine fluoride membranes, the blots were blocked with 4% bovine serum albumin (BSA) or 4% non-fat dry milk in tris-buffered saline plus 0.5% tween-20 (TBST) at room temperature for 1 hr. They were then incubated overnight with the suitable primary antibodies at 4° C. The blots were then subjected to three 10 min washing steps in TBST, after which they were incubated with the corresponding HRP-conjugated secondary antibodies for lh at room temperature followed by three 10 min washing steps with TB ST. Immunodetection was performed with the enhanced-chemiluminescence EZ-ECL kit (Biological Industries, Israel). The immunoblots were quantified with a CCD camera and Quantity One software (Bio-Rad). Each immunoblot was measured relative to the background and normalized to the endogenous controls (β-actin). Phosphorylation levels were calculated as the ratio between the readings from the antibody directed against the phosphoproteins and those from the antibody directed against the phosphorylation state-independent forms of the proteins.

CaMKIIα = assay: Western blot of CaMKIIα phosphorylation (pT286, pT305) and total level in brain tissue after injection; conditions: for auto-active phosphorylation of CaMKIIα (pT286): 40 min after ketamine injection; for auto-active phosphorylation pT286CaMKIIa / auto-inhibitory phosphorylation pT305CaMKIIa: 1 hour after ketamine injection; for total CaMKIIα levels: any time point examined after ketamine
Experimental: as §1, §2

eEF2 = assay: Western blot of eEF2 phosphorylation (pT56) in brain tissue after injection
Experimental: as §1, §2

[2] = hippocampus, 3 hours after ketamine, TatCN21 or control 10 minutes before

CNC1(c2ccccc2Cl)CCCCC1=O (stereo not drawn) [ketamine]
global protein synthesis ([1]; 30 minutes after ketamine injection): significantly increased | global protein synthesis (puromycin incorporation) ([1]; WT mice): increased protein synthesis | global protein synthesis (puromycin incorporation) ([1]; eEF2K-KO mice): did not lead to further increase | GluA1 expression levels (GluA1; hippocampus, 20 minutes after ketamine): increased expression levels | GluA1 expression levels (GluA1; hippocampus, 40 minutes after ketamine): increased expression levels | GluA1 expression (GluA1; hippocampus, 3 hours after ketamine injection): no significant difference | GluA1 level (GluA1; hippocampus, 24 hours following ketamine administration): markedly higher | GluA1 expression in the hippocampus (GluA1; ketamine 5 mg/kg b.w.): induced GluA1 expression | GluA1 expression in the hippocampus (GluA1; ketamine 10 mg/kg b.w.): induced GluA1 expression | pT286CaMKIIα (CaMKIIα; WT animals, 30 minutes after ketamine): higher | pT305 phosphorylation of CaMKIIα (CaMKIIα; WT littermates, 30 minutes after ketamine): significantly higher | auto-inhibitory phosphorylation of CaMKIIα (pT305) (CaMKIIα; cortex, 20 min after ketamine, C57BL/6 mice): significant induction; also recorded: significantly increased | auto-active phosphorylation of CaMKIIα (pT286) (CaMKIIα; cortex, C57BL/6 mice): slightly increased | auto-inhibitory phosphorylation of CaMKIIα (pT305) (CaMKIIα; cortex, 40 minute time point after ketamine): returned to baseline | auto-active phosphorylation pT286CaMKIIa (CaMKIIα; cortex): significantly increase | auto-inhibitory phosphorylation pT305CaMKIIa (CaMKIIα; cortex): reduced | total CaMKIIα levels (CaMKIIα; cortex): did not show any difference; also recorded: no difference | pT286 and pT305 phosphorylation levels of CaMKIIα (CaMKIIα; eEF2K-KO mice, after ketamine): no additive changes | auto-inhibitory phosphorylation of CaMKIIα (pT305) (CaMKIIα; hippocampus, 20 min after ketamine, C57BL/6 mice): significant induction; also recorded: significantly increased | auto-active phosphorylation of CaMKIIα (pT286) (CaMKIIα; hippocampus, C57BL/6 mice): slightly increased | auto-inhibitory phosphorylation of CaMKIIα (pT305) (CaMKIIα; hippocampus, 40 minute time point after ketamine): returned to baseline | auto-active phosphorylation pT286CaMKIIa (CaMKIIα; hippocampus): significantly increase | auto-inhibitory phosphorylation pT305CaMKIIa (CaMKIIα; hippocampus): reduced | CaMKIIa phosphorylation of pT286 (CaMKIIα; [2]): trend towards higher phosphorylation | any other protein examined, or their phosphorylation status (CaMKIIα; [2]): no significant difference | total CaMKIIα levels (CaMKIIα; hippocampus): did not show any difference; also recorded: no difference | phosphorylated eEF2 (peEF2) (eEF2; 20-30 minutes after ketamine administration): strongly decreased | phosphorylated eEF2 (peEF2) (eEF2; 40 minutes after ketamine administration): returns to its baseline levels | phosphorylated eEF2 (peEF2) (eEF2; WT mice (eEF2K littermates), hippocampal lysates, 30 minutes after ketamine): significantly lower | eEF2 phosphorylation (eEF2; hippocampus, 20 min after ketamine administration, C57BL/6 mice): significantly reduced
